## Yeast mating assay B: variants of the scFv Ab-14

From the AlphaSeq antibody data of Li et al. 2023 (doi:10.1038/s41467-023-39022-2), copy in the FLAb collection.

Target: peptide PDVDLGDISGINAS, taken from heptad repeat 2 (HR2) of SARS-CoV-2 spike.

Parent: Ab-14, a human scFv built as VH, the linker GGGGSGGGGSGGGGS, VL. Only the CDRs of the heavy chain vary.
VH: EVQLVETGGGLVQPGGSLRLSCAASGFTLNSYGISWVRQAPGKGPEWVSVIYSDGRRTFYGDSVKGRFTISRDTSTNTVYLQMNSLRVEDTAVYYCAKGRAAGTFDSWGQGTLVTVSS
VL: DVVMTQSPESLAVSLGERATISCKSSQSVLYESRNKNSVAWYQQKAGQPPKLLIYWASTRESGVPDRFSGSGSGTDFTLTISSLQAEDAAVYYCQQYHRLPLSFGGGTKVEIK

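The parent was found by panning a naive human phage display library on the peptide. These sequences belong to a second round, designed from the earlier measurements on random variants of the parent. Several design methods are mixed in this list. In AlphaSeq, yeast of one mating type display the scFv and yeast of the other type display the target. The frequency of each diploid, read from paired DNA barcodes, reflects how well the two displayed proteins bind. Scores were corrected for input abundance and mapped to Kd with protein pairs of known affinity run in the same pool. There are six technical replicates.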

The parent's heavy chain CDRs are GFTLNSYGIS, VIYSDGRRTFYGDSVK, GRAAGTFDS; each variant's own CDRs replace them letter for letter. This list holds designs with more than six substitutions. Values are log10 of the apparent Kd in nM; lower means stronger binding. Averages over replicates are reported, and they cover detected replicates only. "not detected" means that the variant was in the library but no mating with the target was seen in any replicate; the authors take this as a sign of poor binding, and no number exists. A sequence measured in both rounds can read differently, since the two assays cover different ranges. Empty control strains, which show no peptide, gave a signal in 1% of pairings with all heavy chain designs; the median was 2.08 and 95% of these signals were weaker than 0.84. No background was subtracted. The authors' rule: three or more of the six replicates give a measured affinity, fewer mean a poor binder. The parent sequence was in this pool as ten entries: three were never detected, three once, and four in most replicates, with averages from 0.34 to 2.37.

CDR-H1,CDR-H2,CDR-H3,"mean, log10 nM",replicates with signal
GFDLNEYGIS,VIYADGRRTQYIDSVK,GNQAGTFDV,-0.22,6 of 6
GFNLDEYGIS,VIYADGRRTAYSDSVK,GEVAGTFDL,-0.27,6 of 6
GFDLNEYGIS,VIYADGMRTAYVDSVK,GENAGTFDT,-0.02,6 of 6
GFDLDEYGIS,VIYADGMRTAYTDNVK,GNVAGTFDV,0.02,6 of 6
GFDLNEYGIS,VIYADGLRTFYADSVK,GNLAGTFDS,-0.32,6 of 6
GFDLEEYGIS,VIYADGQRFAYAQEFK,GEAAGAFDL,1.16,3 of 6
GFDLNEYGIS,VIYADGSRTAYIDSVK,GQNAGTFDV,0.79,6 of 6
GFDLDEYGIS,VIYADGRRTFYQDSVK,GQAAGTFDI,-0.56,6 of 6
GFDLNEYGIS,VIYADGVRTAYTDSVK,GENAGTFDQ,0.20,6 of 6
GFDIEEYGIS,VIYADGLRTVYADDVK,GIAKGSSLT,not detected,0 of 6
GYDLNEYGIS,VIYADGKRVSYAESVK,GNFIGKVAD,not detected,0 of 6
GFDLNEMGIS,VIYADGRRVEYNDKVK,GNLTGTFDQ,not detected,0 of 6
GFDLNEYGIS,VIYADGRRTAYLDSVK,GQNAGTFDT,-0.62,6 of 6
GFDLDEYGIS,VIYADGRRTFYQDSVK,GQAAGTFDM,-0.17,6 of 6
GFSINEYGIS,VIYADGMRTAYVESVK,GTIDEDFNT,0.34,6 of 6
GFDINEYGIS,VIYADGKRVEYNDKVK,GMLAGTFDQ,0.59,4 of 6
GFGLNEYGIS,VIYADGQRKYYADNVK,GVFGEDGQV,not detected,0 of 6
GFDLNEYGIS,VIYADGMRTAYVDKVK,GNVAGTFDV,-0.54,6 of 6
GFDIQDYGIS,VIYADGSRTAYVNSVK,GEQGASYDL,2.17,5 of 6
GFALNSYGLS,VIYADGRRLFYGDSVK,GRATAAFDS,not detected,0 of 6
GFDLTEYGIS,VIYADGRRVVYQDKVK,GELAGTFDQ,-0.33,6 of 6
GFDLNEYGIS,VIYADGQRKVYADSVK,GNVAGTFDV,-0.45,6 of 6
GFELDEYGIS,VIYADGRRTFYADSVK,GENAGTFMM,not detected,0 of 6
GFDLNEYGIS,VIYADGVRTAYADAVK,GNNAGTFDV,-0.39,6 of 6
GQDLAEYGIS,VIYADGKRTMYANDVK,GTNDGQGGT,not detected,0 of 6
GFDLNEYGIS,VIYADGRRTFYLDSVK,GESAGTFDQ,-0.12,6 of 6
GFDLDEYGIS,VIYADGRRTFYADSVK,GEVAGTFDT,-0.41,6 of 6
GFDLNEYGIS,VIYADGLRTAYTDSVK,GENAGTFDV,0.64,6 of 6
GFDINEYGIS,VIYADGRRTQYADSVK,GEAAGTFDL,-0.01,5 of 6
GFDIDEYGIS,VIYADGKRSGYKNTVK,GNFNISLSI,not detected,0 of 6
GFDLDEYGIS,VIYADGRRTAYADSVK,GQNAGTFDQ,0.62,6 of 6
GFDVDEYGIS,VIYADGKRSMYTDKVK,GVDADTMMV,3.20,2 of 6
GFDLDEYGIS,VIYADGRRTFYKDSVK,GNNAGTFDM,1.21,6 of 6
GFGLDEYGIS,VIYADGMRTFYADSVK,GENAGTFDM,0.06,6 of 6
GFDLDEYGIS,VIYADGMRTAYSDSVK,GNQAGTFDT,-0.15,6 of 6
GFDLNEYGIS,VIYADGVRTFYSDKVK,GNVGGTFDI,0.13,6 of 6
GFNLDEYGVS,VIYADGMRMAYQNKVK,GQKGDVFLM,not detected,0 of 6
GFDLNEYGIS,VIYADGMRTAYADSVK,GNVAGTFDM,0.05,6 of 6
GFDLNEYGIS,VIYADGRRTFYTDSVK,GEHAGIFDV,0.13,5 of 6
GFDLNEYGIS,VIYADGVRTAYADDVK,GNEAGTFDV,-0.49,6 of 6
GFDLGEYGIS,VIYADGRRKAYSDAVK,GINVYGKTV,not detected,0 of 6
GFDLGEYGVS,VIYADGKRTFYADHVK,GVNAGGFDT,not detected,0 of 6
GFDLNEYGIS,VIYADGQRTAYADDVK,GNQAGTFDV,0.48,6 of 6
GFTLDEYGIS,VIYADGRRTFYQDSVK,GNVAGTFDV,0.23,6 of 6
GDILEEYGIS,VIYADGMRTYYEDSVK,GNVNGTFFI,2.45,3 of 6

Extract of 4 entries:

CDR-H1,CDR-H2,CDR-H3,"mean, log10 nM",replicates with signal
GFTLDEYGIS,VIYADGRRTFYQDSVK,GNVAGTFDV,0.23,6 of 6
GFGLNEYGIS,VIYADGQRKYYADNVK,GVFGEDGQV,not detected,0 of 6
GFDLGEYGIS,VIYADGRRKAYSDAVK,GINVYGKTV,not detected,0 of 6
GFGLDEYGIS,VIYADGMRTFYADSVK,GENAGTFDM,0.06,6 of 6